Data published in patent US11564394B2, “Distorted gold (I)-phosphine complexes and methods for use as antifungal agents” (University of Kentucky Research Foundation, priority 2019, dated 2023).
Where two headings read alike, the source gives them in different places.

Tests used:
[1] = test system: murine and human red blood cells (RBCs); details: at 7.8 μg/mL
Description: The RBCs were resuspended in PBS to achieve a cell concentration of on the order of 10^7 cells/mL. Compounds were dissolved at concentration of 3.14 mg/mL (200×) in DMSO. Serial double dilutions were made in DMSO. A 1:100 dilution of compound in PBS was added to 100 of RBCs in a 96-well plate (total volume of 200 μL). Compounds were tested in the range of 0.06-15.6 μg/mL in quadruplicate with 0.5% DMSO and ˜5×10^6 RBCs per tube. The RBCs were also treated with 1% Triton-X® (positive control) and PBS (negative control). The RBCs were treated for 30 min at 37° C. and the absorbance was read at 595 nm. Hemolysis is visually observed by a decrease in optical density of the wells (turbid, dark red to transparent pink). Percent hemolysis (FIG. 5A-B) was calculated using this equation after subtraction of the background absorbance ([…]): […]

murine red blood cells = details: murine RBCs; at 3.9 mg/mL (so in the source); 30 min at 37° C.

Row | Substance | survival (mice; mice, dose of 8 mg/kg) [%] | survival (mice; mouse, in vivo, 2 mg/kg) [%] | hemolytic activity [1] | hemolysis (murine red blood cells) [%]
1 | bis-[1,2-bis[(2R,5R)-2,5-dimethylfphospholano]benzene]gold(1) [Compound 6] | 67 | 100 | displayed hemolytic activity | 60
2 | bis-[1,2-bis[(2S,5S)-2,5-dimethylphospholano]benzene]gold(I) [Compound 4] | 83 | 100 | displayed hemolytic activity | 13
